Data published in PubChem BioAssay AID493036 (Sanford-Burnham Center for Chemical Genomics, 2011).
The entries are a selection whose mix differs from that of the whole data set. Active and inactive are the calls of the source.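 The calls were made as follows: active = activation at or above 40% of the spot to cytoplasm intensity ratio, with at least 20 cells analyzed; inconclusive = wells under 20 cells, flagged as cytotoxic or low count; inactive = the rest.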

Sequences of proteins named here, by UniProt entry; tags and fusion partners are left off.
UniProt P30989, whole entry: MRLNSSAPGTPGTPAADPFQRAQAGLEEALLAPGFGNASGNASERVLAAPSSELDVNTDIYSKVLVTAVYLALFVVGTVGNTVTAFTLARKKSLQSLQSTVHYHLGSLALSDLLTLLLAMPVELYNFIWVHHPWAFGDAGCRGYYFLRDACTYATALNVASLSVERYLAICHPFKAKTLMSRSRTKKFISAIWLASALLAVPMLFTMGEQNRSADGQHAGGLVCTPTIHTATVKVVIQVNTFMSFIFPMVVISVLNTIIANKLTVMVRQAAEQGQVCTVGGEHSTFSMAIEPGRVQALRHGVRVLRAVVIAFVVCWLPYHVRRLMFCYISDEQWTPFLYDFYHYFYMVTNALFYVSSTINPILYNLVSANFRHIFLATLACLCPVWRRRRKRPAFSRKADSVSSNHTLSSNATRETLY

Each compound was assayed against Neurotensin receptor type 1 (Homo sapiens) (UniProt P30989) (assay: agonists of NTR1, primary screen, imaging, U2OS cells, beta-arrestin-GFP, high content (AID 493036;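 also: 0% = DMSO without peptide and 100% = 100 nM NTR1 peptide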) (AID 493036)). Conditions: NTR1-U2OS beta-arrestin-GFP spot imaging, agonist mode; at 20 µM; active compounds read high.

| Structure (SMILES) | activation |
| --- | --- |
| CCC(=O)N(c1ccccc1)C1(COC)CCN(CCc2cccs2)CC1 | inactive: -1.5% |
| CCC(=O)N(c1ccccc1)C1(COC)CCN(CCn2nnn(CC)c2=O)CC1 | inactive: 1.7% |
